This is an account of results in US20040120943A1.

For assay [1], the target named is antithrombin III (UniProt P01008). Briefly: inhibition of thrombin by antithrombin III, 0.5 USP units/mL heparin, pH 7.4, 37 °C.
The target is the same in assay [2]. Kind of assay: inhibition of thrombin by antithrombin III with heparin.
For assay [3], the target named is protein C (UniProt P04070). Kind of assay: cell-based or functional assay.
For assay [4], the target named is antithrombin III (UniProt P01008). Kind of assay: calculated from kon for antithrombin III of wild-type and mutants.

The kon is the second-order rate constant of association. Low readings indicate slow association, high ones fast association. In assay [1], “variant thrombin E217A (from UniProt P00734 328-363; P00734 364-622) (enzyme)” registered a kon of 1e+06 M⁻¹ s⁻¹. With “variant thrombin W215A (from UniProt P00734 364-622) (enzyme; other documents disagree on this pair)”, in assay [2], the fold loss against wild-type amounted to 25 fold and the fold reduction against wild-type stood at 20 fold. Also, the kon in assay [1] turned out to be 560000 M⁻¹ s⁻¹. In assay [3], “variant thrombin W215A/E217A (WE) (from UniProt P00734 364-622) (enzyme)” came in with a progress curve of protein C activation with 100 nM rabbit thrombomodulin against wild-type of 7 fold. As for “variant thrombin W215A/E217A (WE) (from UniProt P00734 364-622) (enzyme; other documents disagree on this pair)”, the fold reduction in the rate of inactivation against wild-type in assay [2] was 3000 fold. In addition, in assay [4], the ΔGc (coupling free energy between the W215A and E217A mutations) was 1.5 kcal/mol. This substance also gave a kon in assay [1] of 4000 M⁻¹ s⁻¹.

In assay [1], “wild-type human α-thrombin (from UniProt P00734 328-363; P00734 364-622) (enzyme; other documents disagree on this pair)” had a kon of 1.3e+07 M⁻¹ s⁻¹.
